Experimental data: US6750197

Target: neuronal nitric oxide synthase (NNOS), as used for the CAM binding of Table 2 (Rattus norvegicus (Rat)) (UniProt P29476)
Assay: radiolabeled CAM trapped on a membrane by NNOS adhesion; no peptide added

calmodulin (from UniProt P0DP23 2-149)
NNOS CAM Binding (counts): 774 counts
